US11753408B2, “Compounds and method for blocking transmission of malarial parasite” (The United States of America, as represented by the …, priority 2016, dated 2023)

Key:
[1] = system: Asexual parasites of P. falciparum strain 3D7; experiment: In vitro drug activity on asexual parasites (SYBR Green assay); assay type: cell-based, Plasmodium falciparum; details: read-out: Asexual EC50, P. falciparum 3D7 asexual parasites, 72 h
Procedure: (§1) Cell culture. Asexual parasites of P. falciparum strain 3D7 were cultured as described previously [Trager W, et al., Journal of Parasitology 2005, 91: 484-486], Stage III-V gametocytes were selected and enriched with 3-day treatment with 50 mM N-acetylglucosamine (NAG) and the following Percoll density gradient centrifugation after gametocyte production [Tanaka T Q, et al., Molecular and Biochemical Parasitology, 2011, 111: 160-163], Gametocytes of HB3 and Dd2 strains were produced and then set up for assay in a similar process. HepG2 cells (ATCC, cat. no. 77400) were cultured in 175-cm^2 tissue culture flasks with 30 ml growth medium at 37° C. in a 5% CO2 humidified atmosphere. Growth medium was made with Dulbecco's Modified Eagle Medium with 10% fetal bovine serum (FBS). Growth medium was replaced every other day and cells were passed at 75% confluence.
Asexual parasites of P. falciparum strain 3D7 were cultured as described previously (Trager, W. et al., J. Parasitol. 2005, 91(3): 484-486). Drug activity on asexual stage parasites was tested using a SYBR Green assay as described previously (Eastman, R. T. et al., Antimicrob. Agents Chemother. 2013, 57(1): 425-435; Smilkstein, M. et al., Antimicrob. Agents Chemother. 2004, 48(5): 1803-1806). Briefly, parasites were diluted to 0.5% parasitemia in complete culture medium with 2% hematocrit and drugs diluted in DMSO (≤0.5%) and were loaded into a 96-well plate (200 μl/well). No drug and RBC alone wells were included as positive and background controls, respectively, and each testing condition was examined in duplicated. After 72 h incubation under the standard culture condition and a freeze-thaw lysis step at −80° C. and room temperature, 100 μl/well of lysis buffer containing SYBR Green I was added to the parasite culture and incubated for 30 min at room temperature. The fluorescence of each well was measured at 520 nm following excitation at 490 nm using a FLUOstar Optima™ microplate reader (BMG Labtech).

[2] = system: Stage III-V gametocytes (blood stage P. falciparum parasites); experiment: In vitro drug activity on gametocytes (AlamarBlue viability assay); assay type: cell-based, Plasmodium falciparum; details: read-out: Gametocyte EC50, 72 h incubation
Procedure: as §1
Compound screening experiments were performed as previously described [Tanaka T Q et al., Molecular and Biochemical Parasitology, 2013, 3188: 20-25], Briefly, 2.5 μl/well incomplete medium was dispensed into each well of 1,536-well plates using the Multidrop Combi followed by 23 nl compound transferring using the NX-TR Pintool (WAKO Scientific Solutions, San Diego, Calif.). 2.5 μl/well of gametocytes was dispensed with a seeding density of 20,000 cells/well using the Multidrop Combi. The assay plates were incubated for 72 h at 37° C. with 5% CO2. After addition of 5 μl/well of 2× AlamarBlue dye (Life Technologies, cat. no. DALI 100), the plates were incubated for 24 h at 37° C. with 5% CO2 and were read in a fluorescence detection mode (Ex=525 nm, Em=598 nm) on a ViewLux plate reader (PerkinElmer).
Stage III-V gametocytes (blood stage P. falciparum parasites) were enriched with treatment with 50 mM N-acetylglucosamine (NAG) and Percoll density gradient centrifugation as described previously^1. Briefly, 2.5 μl/well incomplete medium was dispensed into each well of 1,536-well plates using the Multidrop Combi followed by 23 nl compound transfer using the NX-TR Pintool (WAKO Scientific Solutions, San Diego, Calif.). Then, 2.5 μl/well of gametocytes was dispensed with a seeding density of 20,000 cells/well using the Multidrop Combi. The assay plates were incubated for 72 h at 37° C. with 5% CO2. After addition of 5 μl/well of 2× AlamarBlue dye (Life Technologies, cat. no. DALI 100), the plates were incubated for 24 h at 37° C. with 5% CO2 and then were read in a fluorescence detection mode (Ex=525 nm, Em=598 nm) on a ViewLux plate reader (PerkinElmer).

Solubility at pH 7.4 = assay type: physicochemical
[3] = Microsomal stability (rat); assay type: in vitro ADME; details: rat microsomes

O=C(NC1CC1)c1ccc(-n2c(=O)[nH]c3cnc4ccc(-c5ccc(Cl)cc5)cc4c32)cc1
EC50 [1]: 914 nM

CN(C(=O)c1ccc(-n2c(=O)n(C)c3cnc4ccc(-c5ccc(Cl)c(O)c5)cc4c32)cc1)C1CC1
EC50 [1]: 218 nM
EC50 [2]: 338 nM
Sol @ pH 7.4 (ug/mL) (Solubility at pH 7.4): 3.3 ug/mL
Microsomal Stability (rat) T1/2 [3]: 22.7 min

CN(C)Cc1ccc(-c2ccc3ncc4[nH]c(=O)n(-c5cccc(S(C)(=O)=O)c5)c4c3c2)cc1
EC50 [1]: 7800 nM
EC50 [2]: 3740 nM
Sol @ pH 7.4 (ug/mL) (Solubility at pH 7.4): 56.7 ug/mL
Microsomal Stability (rat) T1/2 [3]: >30 min

Cc1ccc(S(C)(=O)=O)cc1-n1c(=O)[nH]c2cnc3ccc(-c4ccc(CN(C)C)cc4)cc3c21
EC50 [1]: 4370 nM
EC50 [2]: 14600 nM

Cn1c(=O)n(-c2ccc(C(=O)NC3CC3)cc2)c2c3cc(-c4ccc(Cl)cc4)ccc3ncc21
EC50 [1]: 683 nM

Nc1ccc(-c2ccc3ncc4[nH]c(=O)n(-c5ccc(C(=O)N6CCCCC6)cc5)c4c3c2)cn1
EC50 [1]: 107 nM
EC50 [2]: 374 nM
Sol @ pH 7.4 (ug/mL) (Solubility at pH 7.4): <1.0 ug/mL
Microsomal Stability (rat) T1/2 [3]: 6.5 min

CN(C)CCNC(=O)c1ccc(-n2c(=O)n(C)c3cnc4ccc(-c5ccc(F)cc5)cc4c32)cc1
EC50 [1]: 251 nM

O=C(c1ccc(-n2c(=O)[nH]c3cnc4ccc(-c5ccc(Cl)cc5)cc4c32)cc1)N1CCOCC1
EC50 [1]: 2170 nM
EC50 [2]: 2770 nM
Sol @ pH 7.4 (ug/mL) (Solubility at pH 7.4): <1.0 ug/mL
Microsomal Stability (rat) T1/2 [3]: 18.5 min

Cc1cc(C(=O)N2CCOCC2)ccc1-n1c(=O)n(C)c2cnc3ccc(-c4ccc(N)nc4)cc3c21
EC50 [1]: 50.9 nM
EC50 [2]: 150 nM
Sol @ pH 7.4 (ug/mL) (Solubility at pH 7.4): 3.9 ug/mL
Microsomal Stability (rat) T1/2 [3]: >30 min

CN(C)Cc1ccc(-c2ccc3ncc4[nH]c(=O)n(-c5ccc6c(c5)C(=O)NC6)c4c3c2)cc1
EC50 [1]: 14100 nM
Sol @ pH 7.4 (ug/mL) (Solubility at pH 7.4): 37.7 ug/mL
Microsomal Stability (rat) T1/2 [3]: >30.0 min

CN(C)Cc1ccc(-c2ccc3ncc4c(c3c2)n(-c2ccc(C(=O)N3CCOCC3)cc2)c(=O)n4C)cc1
EC50 [1]: 4800 nM
EC50 [2]: 8020 nM
Sol @ pH 7.4 (ug/mL) (Solubility at pH 7.4): >77.0 ug/mL
Microsomal Stability (rat) T1/2 [3]: >30.0 min

Cc1ccc(-c2ccc3ncc4c(c3c2)n(-c2ccc(C(=O)N3CCOCC3)cc2)c(=O)n4C)cc1
EC50 [1]: 245 nM
EC50 [2]: 689 nM
Sol @ pH 7.4 (ug/mL) (Solubility at pH 7.4): <1.0 ug/mL
Microsomal Stability (rat) T1/2 [3]: 18.2 min

Cn1c(=O)n(-c2ccc(C(=O)N3CCCCC3)cc2)c2c3cc(-c4ccc(Cl)cc4)ccc3ncc21
EC50 [1]: 992 nM
EC50 [2]: 1850 nM
Sol @ pH 7.4 (ug/mL) (Solubility at pH 7.4): <1.0 ug/mL
Microsomal Stability (rat) T1/2 [3]: 5.5 min

CN(C(=O)c1ccc(-n2c(=O)n(C)c3cnc4ccc(-c5ccc(Cl)cc5)cc4c32)cc1)C1CC1
EC50 [1]: 495 nM
EC50 [2]: 2620 nM
Sol @ pH 7.4 (ug/mL) (Solubility at pH 7.4): <1.0 ug/mL
Microsomal Stability (rat) T1/2 [3]: 17.8 min

Cn1c(=O)n(-c2ccc(C(=O)N3CCCCC3)cc2)c2c3cc(-c4ccc(N)nc4)ccc3ncc21
EC50 [1]: 60.9 nM
EC50 [2]: 159 nM
Sol @ pH 7.4 (ug/mL) (Solubility at pH 7.4): <1.0 ug/mL
Microsomal Stability (rat) T1/2 [3]: 15.6 min

Cc1cc(C(=O)N2CCOCC2)ccc1-n1c(=O)[nH]c2cnc3ccc(-c4ccc(Cl)cc4)cc3c21
EC50 [1]: 1070 nM
EC50 [2]: 1910 nM
Sol @ pH 7.4 (ug/mL) (Solubility at pH 7.4): <1.0 ug/mL
Microsomal Stability (rat) T1/2 [3]: 6.2 min

Cn1c(=O)n(-c2ccc(C(=O)N3CCOCC3)cc2)c2c3cc(-c4ccc(Cl)c(O)c4)ccc3ncc21
EC50 [1]: 54.7 nM
EC50 [2]: 237 nM
Sol @ pH 7.4 (ug/mL) (Solubility at pH 7.4): <1.0 ug/mL
Microsomal Stability (rat) T1/2 [3]: >30.0 min

CN(C)C(=O)c1cccc(-n2c(=O)[nH]c3cnc4ccc(-c5ccc(Cl)cc5)cc4c32)c1
EC50 [1]: 4280 nM
Sol @ pH 7.4 (ug/mL) (Solubility at pH 7.4): <1 ug/mL
Microsomal Stability (rat) T1/2 [3]: 19.6 min

CN(C)Cc1ccc(-c2ccc3ncc4[nH]c(=O)n(-c5cccc(S(N)(=O)=O)c5)c4c3c2)cc1
EC50 [1]: 14700 nM

CN(C)CCCNC(=O)c1ccc(-n2c(=O)n(C)c3cnc4ccc(-c5ccc(F)cc5)cc4c32)cc1
EC50 [1]: 350 nM

CS(=O)(=O)c1ccc(-n2c(=O)[nH]c3cnc4ccc(-c5ccc(Cl)cc5)cc4c32)cc1
EC50 [1]: 526 nM
EC50 [2]: 816 nM
Sol @ pH 7.4 (ug/mL) (Solubility at pH 7.4): <1.0 ug/mL
Microsomal Stability (rat) T1/2 [3]: >30.0 min

Cn1c(=O)n(-c2cccc(C(N)=O)c2)c2c3cc(-c4cccc(C(C)(C)C(=O)O)c4)ccc3ncc21
EC50 [1]: 43800 nM

Cn1c(=O)n(-c2ccc(C(=O)N3CCOCC3)cc2)c2c3cc(-c4ccc(Cl)cc4)ccc3ncc21
EC50 [1]: 418 nM
EC50 [2]: 719 nM

Cn1c(=O)n(-c2ccc(C(=O)NC3CC3)cc2)c2c3cc(-c4ccc(F)cc4)ccc3ncc21
EC50 [1]: 197 nM

Cn1c(=O)n(-c2ccc(S(C)(=O)=O)cc2)c2c3cc(-c4ccc(N)nc4)ccc3ncc21
EC50 [1]: 68.1 nM
EC50 [2]: 228 nM
Sol @ pH 7.4 (ug/mL) (Solubility at pH 7.4): 4 ug/mL
Microsomal Stability (rat) T1/2 [3]: >30.0 min

CN(C)Cc1ccc(-c2ccc3ncc4c(c3c2)n(-c2cccc(S(N)(=O)=O)c2)c(=O)n4C)cc1
EC50 [2]: 28700 nM
Sol @ pH 7.4 (ug/mL) (Solubility at pH 7.4): 3.7 ug/mL
Microsomal Stability (rat) T1/2 [3]: >30 min

CN(C)CCCNC(=O)c1ccc(-n2c(=O)n(C)c3cnc4ccc(-c5ccc(Cl)cc5)cc4c32)cc1
EC50 [1]: 154 nM

Cn1c(=O)n(-c2ccc(C(=O)N3CCOCC3)cc2)c2c3cc(-c4ccc(N)nc4)ccc3ncc21
EC50 [1]: 82.2 nM
EC50 [2]: 108 nM
Sol @ pH 7.4 (ug/mL) (Solubility at pH 7.4): 1.1 ug/mL
Microsomal Stability (rat) T1/2 [3]: >30.0 min

NC(=O)c1cnc2ccc(-c3ccc(Cl)cc3)cc2c1Nc1ccc(C(=O)NC2CC2)cc1
EC50 [1]: 490 nM

CN(C)C(=O)c1ccc(-n2c(=O)n(C)c3cnc4ccc(-c5ccc(Cl)cc5)cc4c32)cc1
EC50 [1]: 116 nM
EC50 [2]: 536 nM
Sol @ pH 7.4 (ug/mL) (Solubility at pH 7.4): <1.0 ug/mL
Microsomal Stability (rat) T1/2 [3]: 25.8 min

CN(C)CCNC(=O)c1ccc(-n2c(=O)n(C)c3cnc4ccc(-c5ccc(Cl)cc5)cc4c32)cc1
EC50 [1]: 431 nM

Cn1c(=O)n(-c2ccc(C(=O)N3CCOCC3)cc2)c2c3cc(-c4cccc(C#N)c4)ccc3ncc21
EC50 [1]: 1230 nM
EC50 [2]: 1120 nM
Sol @ pH 7.4 (ug/mL) (Solubility at pH 7.4): 5.4 ug/mL

O=C(NC1CC1)c1ccc(-n2c(=O)[nH]c3cnc4ccc(-c5ccc(Cl)c(O)c5)cc4c32)cc1
EC50 [1]: 1090 nM
EC50 [2]: 7650 nM
Sol @ pH 7.4 (ug/mL) (Solubility at pH 7.4): <1.0 ug/mL
Microsomal Stability (rat) T1/2 [3]: 19 min

Cn1c(=O)n(-c2ccc(S(C)(=O)=O)cc2)c2c3cc(-c4ccc(Cl)cc4)ccc3ncc21
EC50 [1]: 446 nM
EC50 [2]: 1330 nM
Sol @ pH 7.4 (ug/mL) (Solubility at pH 7.4): <1.0 ug/mL
Microsomal Stability (rat) T1/2 [3]: >30.0 min

CN(C)Cc1ccc(-c2ccc3ncc4[nH]c(=O)n(-c5ccc6c(c5)CNC6=O)c4c3c2)cc1
EC50 [1]: 3800 nM
Sol @ pH 7.4 (ug/mL) (Solubility at pH 7.4): 40 ug/mL
Microsomal Stability (rat) T1/2 [3]: >30.0 min

CS(=O)(=O)c1ccc(-n2c(=O)[nH]c3cnc4ccc(-c5ccc(N)nc5)cc4c32)cc1
EC50 [1]: 67.8 nM
EC50 [2]: 558 nM

CNC(=O)c1cccc(-n2c(=O)[nH]c3cnc4ccc(-c5ccc(CN(C)C)cc5)cc4c32)c1
EC50 [2]: 50100 nM
Sol @ pH 7.4 (ug/mL) (Solubility at pH 7.4): 12.7 ug/mL
Microsomal Stability (rat) T1/2 [3]: >30 min

CC(=O)c1cnc2ccc(-c3ccc(Cl)cc3)cc2c1Nc1ccc(C(=O)NC2CC2)cc1
EC50 [1]: 5120 nM

N#Cc1cccc(-c2ccc3ncc4[nH]c(=O)n(-c5ccc(C(=O)N6CCOCC6)cc5)c4c3c2)c1
EC50 [1]: 632 nM
EC50 [2]: 1060 nM
Sol @ pH 7.4 (ug/mL) (Solubility at pH 7.4): 5.2 ug/mL
